Experimental data from patent US20110009446A1, “OLIGOMER-GUANIDINE CLASS CONJUGATES” (Nektar Therapeutics, priority 2008, published 2011).
Structures can show the parent of a compound that is named as a salt.

Protein sequences, listed by entry. Tags and fused reporters are not part of them. Residues count along the entry.
UniProt Q9WTR4, 1-597: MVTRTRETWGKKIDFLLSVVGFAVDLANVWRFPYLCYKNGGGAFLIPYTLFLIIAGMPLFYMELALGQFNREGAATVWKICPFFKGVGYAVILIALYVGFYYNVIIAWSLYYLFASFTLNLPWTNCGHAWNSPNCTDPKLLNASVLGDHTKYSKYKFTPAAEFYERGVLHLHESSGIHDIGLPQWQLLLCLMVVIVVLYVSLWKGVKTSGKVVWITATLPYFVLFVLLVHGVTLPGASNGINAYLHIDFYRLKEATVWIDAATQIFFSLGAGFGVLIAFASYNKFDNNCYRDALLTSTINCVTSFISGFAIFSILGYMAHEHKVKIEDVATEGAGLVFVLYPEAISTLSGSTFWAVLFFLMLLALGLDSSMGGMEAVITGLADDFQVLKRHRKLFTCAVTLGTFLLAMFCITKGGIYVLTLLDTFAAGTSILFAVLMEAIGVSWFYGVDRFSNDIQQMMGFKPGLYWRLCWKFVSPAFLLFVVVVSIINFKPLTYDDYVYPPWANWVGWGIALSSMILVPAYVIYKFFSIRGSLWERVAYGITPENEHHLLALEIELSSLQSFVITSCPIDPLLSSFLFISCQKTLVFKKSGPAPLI

Molecular target: T1, noradrenalin transporters (Rattus norvegicus, UniProt Q9WTR4)
T1 construct: membranes prepared from rat forebrain which express noradrenalin transporters; from tissue; host or cells: rat forebrain membranes
Assay: Radioligand binding assay ([3H]-nisoxetine competition) in rat forebrain membranes
Conditions: Ki relative to debrisoquine sulfate
Method: The binding affinities of debrisoquine sulfate (parent) and three mPEG conjugates are evaluated using radioligand binding assays in membranes prepared from rat forebrain which express noradrenalin transporters.
Competition binding experiments are conducted by incubating membranes with 1.0 nM of radioligand, [^3H]-nisoxetine, in the presence of variable concentrations (0.1 nM to 3 μM and 1 nM to 30 μM for parent and PEG conjugates, respectively) of test compounds. The reaction is carried out in 50 mM Tris-HCl (pH 7.4), containing 300 mM NaCl and 5 mM KCl at 0-4° C. for 4 hours. Following incubations, the membranes are washed, and the bound radioactivity is measured. Non-specific binding is measured in the presence of excess desipramine (1.0 μM) as the cold ligand; this value is subtracted from the total binding to yield the specific binding at each test compound concentration.
Ki is obtained using the Cheng Prusoff correction using experimental Kd values that are previously determined under these assay conditions.

Fold Change Relative to Parent: 1
SMILES: N=C(N)N1CCc2ccccc2C1 [Debrisoquine sulfate, debrisoquine sulfate]
